{"sequences": {"note": "The chains behind the UniProt entries cited, without tags or fusion partners. Where a name states a change or a piece, a line headed by the entry shows the natural chain unless it says otherwise.", "UniProt P51450": "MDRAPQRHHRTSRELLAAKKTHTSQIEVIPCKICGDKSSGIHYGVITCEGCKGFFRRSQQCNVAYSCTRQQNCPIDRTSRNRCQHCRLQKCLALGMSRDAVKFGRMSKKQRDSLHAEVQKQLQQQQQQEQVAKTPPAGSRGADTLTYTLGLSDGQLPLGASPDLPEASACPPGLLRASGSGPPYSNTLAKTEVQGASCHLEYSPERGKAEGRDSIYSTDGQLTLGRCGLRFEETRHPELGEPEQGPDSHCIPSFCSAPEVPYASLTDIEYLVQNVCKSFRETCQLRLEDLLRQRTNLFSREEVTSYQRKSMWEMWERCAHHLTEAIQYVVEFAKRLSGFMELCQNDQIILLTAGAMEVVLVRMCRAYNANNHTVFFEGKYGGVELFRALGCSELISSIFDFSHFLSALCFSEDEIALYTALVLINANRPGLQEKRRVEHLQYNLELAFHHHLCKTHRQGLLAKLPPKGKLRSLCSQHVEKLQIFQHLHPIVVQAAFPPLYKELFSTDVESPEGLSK"}, "source": "PubChem BioAssay AID2551", "about": "(National Center for Advancing Translational Sciences (NCATS), 2010)", "note": "Only a part is listed here, and it is no random draw. Results filed as inconclusive are left out. Activity calls are given as the source filed them. Calls follow the shape of the dose curve; as a rule, active = well fitted inhibition curve with a large enough effect; inconclusive = small, poorly fitted or top-dose-only effect, or effect the other way; inactive = no such curve, though single readings can be large or run the other way. % is scaled to controls: 0 for no effect and ±100 for the full control effect; potency is read from the fitted curve at half-maximal effect."}
{"target": "Nuclear receptor ROR-gamma (Mus musculus) (UniProt P51450)", "test": "qHTS for inhibitors of ROR gamma transcriptional activity; also: nearly all actives have a fitted effect of over 60% in size", "conditions": "Drosophila S2 Gal4-RORgamma UAS-luciferase reporter, 20 h; series mostly up to 53.6 µM; activity change, negative = inhibition: at the top concentration"}
{"smiles": "O=C(Nc1ccncc1[N+](=O)[O-])c1ccc([N+](=O)[O-])cc1[N+](=O)[O-]", "activity change, negative = inhibition": "inactive: -41.1%"}
{"smiles": "O=C(COc1ccccc1)OC1CN2CCC1CC2", "note": "(configuration not stated)", "activity change, negative = inhibition": "inactive: -10.9%"}
{"smiles": "COP1(=S)c2c(C)nn(CCC#N)c2N=C(c2ccc(F)cc2)N1C", "note": "(configuration not stated)", "activity change, negative = inhibition": "inactive: 24%"}
{"smiles": "O=C(OC1CN2CCC1CC2)c1cccc([N+](=O)[O-])c1", "note": "(configuration not stated)", "activity change, negative = inhibition": "inactive: -14%"}
{"smiles": "CCOC(=O)c1ccc(NC(=O)C(C)(CCl)SC)cc1", "note": "(configuration not stated)", "activity change, negative = inhibition": "inactive: 13.6%"}
{"smiles": "Cc1cc(SC(NC(=O)c2ccccc2)C(Cl)(Cl)Cl)nc(C(C)C)n1", "note": "(configuration not stated)", "Potency": "active: 14.1 µM"}
{"smiles": "CCCCOc1ccc(C(=O)NCC2(N3CCCCC3)CCCCC2)cc1OC", "activity change, negative = inhibition": "inactive: -9.98%"}
{"smiles": "CCOC(=O)Nc1ccc([As](=O)(O)O)c(O)c1", "activity change, negative = inhibition": "inactive: -6.29%"}
{"smiles": "O=P(Nc1ccccn1)(c1cccc2ccccc12)c1cccc2ccccc12", "activity change, negative = inhibition": "inactive: -27.8%"}
{"smiles": "O=[N+]([O-])c1ccc(Nc2ccc(Oc3ccc([N+](=O)[O-])cc3[N+](=O)[O-])cc2)c([N+](=O)[O-])c1", "activity change, negative = inhibition": "inactive: 2.9%"}
{"smiles": "CCOC(=O)Nc1cccc([As](=O)(O)O)c1", "activity change, negative = inhibition": "inactive: 3.75%"}
{"smiles": "Cc1ccc(OP(=O)(Nc2ccc([N+](=O)[O-])cn2)Oc2ccc(C)cc2)cc1", "activity change, negative = inhibition": "inactive: 16.3%"}
{"smiles": "Cc1ccc2nc3c(c(C)c2c1)CC(C(Cl)Cl)S3", "note": "(configuration not stated)", "activity change, negative = inhibition": "inactive: 6.98%"}
{"smiles": "C[As](=O)(O)c1cccc(C(=O)O)c1", "activity change, negative = inhibition": "inactive: -6.23%"}
{"smiles": "O=[As](O)(c1ccc(O)cc1)c1ccccc1O", "activity change, negative = inhibition": "inactive: 9.21%"}
{"smiles": "O=[N+]([O-])c1cc([N+](=O)[O-])c(-c2ccn[nH]2)s1", "activity change, negative = inhibition": "inactive: -89.1%"}
{"smiles": "CCN(CC)C(=S)SC(NC=O)C(Cl)(Cl)Cl", "note": "(configuration not stated)", "activity change, negative = inhibition": "inactive: -2.55%"}
{"smiles": "CC(C)NC(=O)NP(=O)(Oc1ccccc1)Oc1ccccc1", "activity change, negative = inhibition": "inactive: -13.8%"}
{"smiles": "ClCCSc1nnc(-c2cccnc2)o1", "activity change, negative = inhibition": "inactive: -3.16%"}
{"smiles": "CC(C)c1ccc(OP(=O)(Nc2ccccn2)Oc2ccccc2F)cc1", "note": "(configuration not stated)", "activity change, negative = inhibition": "inactive: -0.0818%"}
{"smiles": "COc1cc(I)ccc1[As](=O)(O)O", "activity change, negative = inhibition": "inactive: -2.77%"}
{"smiles": "Cc1cc(=O)[nH]c(N[N+](=O)[O-])n1", "activity change, negative = inhibition": "inactive: 5.32%"}
{"smiles": "O=C(OC1CN2CCC1CC2)C12CC3CC(CC(C3)C1)C2", "note": "(configuration not stated)", "activity change, negative = inhibition": "inactive: -13.3%"}
{"smiles": "COc1ccc(N/C(=N/P(=O)(N2CCOCC2)N2CCOCC2)N2CCOCC2)cc1", "activity change, negative = inhibition": "inactive: -16.7%"}
{"smiles": "O=[As](O)(c1cccc(O)c1)c1cccc(O)c1", "activity change, negative = inhibition": "inactive: -20.3%"}
{"smiles": "Cc1cccc(OCC(=O)OC2CN3CCC2CC3)c1", "note": "(configuration not stated)", "activity change, negative = inhibition": "inactive: -0.756%"}
{"smiles": "O=C(OC1CN2CCC1CC2)c1ccc(Cl)cc1", "note": "(configuration not stated)", "activity change, negative = inhibition": "inactive: 18.9%"}
{"smiles": "CS(=O)(=O)c1ccc(Cl)c(NC(=O)COC(=O)C(O)(c2ccccc2)c2ccccc2)c1", "activity change, negative = inhibition": "inactive: 5.34%"}
{"smiles": "COc1cc(C(=O)NCC2(N3CCOCC3)CCCCC2)cc(Cl)c1OC(C)C", "activity change, negative = inhibition": "inactive: -19.8%"}
{"smiles": "O=[As](O)(O)c1cccnc1", "activity change, negative = inhibition": "inactive: 1.1%"}
{"smiles": "CCOP(=O)(Nc1cccc2ccccc12)OCC", "activity change, negative = inhibition": "inactive: 0.377%"}
{"smiles": "COc1cc(C2NCCC3(OCCO3)C2(C)C)cc(OC)c1OC", "note": "(configuration not stated)", "activity change, negative = inhibition": "inactive: -32.6%"}
{"smiles": "Nc1cccc2c([As](=O)(O)O)cccc12", "activity change, negative = inhibition": "inactive: -6.52%"}
{"smiles": "Cc1ccc(NCCc2c([N+](=O)[O-])cc([N+](=O)[O-])cc2[N+](=O)[O-])cc1", "activity change, negative = inhibition": "inactive: -44.3%"}
{"smiles": "CCCOP(=S)(Nc1nc(N)cc(=O)[nH]1)OCCC", "activity change, negative = inhibition": "inactive: -1.94%"}
{"smiles": "O=C(O)COc1ccc([As](=O)(O)O)cc1[N+](=O)[O-]", "activity change, negative = inhibition": "inactive: -4.45%"}
{"smiles": "Nc1ccccc1[As](=O)(O)c1ccccc1", "activity change, negative = inhibition": "inactive: 11.9%"}
{"smiles": "O=P(Nc1nccs1)(c1ccccc1)c1nc2ccccc2s1", "note": "(configuration not stated)", "Potency": "active: 8.91 µM"}
{"smiles": "O=P(Nc1nccs1)(Oc1ccccc1)Oc1ccccc1", "activity change, negative = inhibition": "inactive: 11.8%"}
{"smiles": "CCOP1(=S)c2c(C)nn(CCC#N)c2N=C(c2ccccc2F)N1C", "note": "(configuration not stated)", "activity change, negative = inhibition": "inactive: -4.42%"}
{"smiles": "CCOP1(=S)c2c(C)nn(CCC#N)c2N=C(c2ccc(F)cc2)N1C", "note": "(configuration not stated)", "activity change, negative = inhibition": "inactive: 29.1%"}
{"smiles": "CN(C(=O)Cc1ccccc1)[C@@H]1CC[C@]2(CCCO2)C[C@H]1N1CCCC1", "activity change, negative = inhibition": "inactive: -8.2%"}
{"smiles": "O=[N+]([O-])c1ccc2c(c1)nnn2O", "activity change, negative = inhibition": "inactive: -13.4%"}
{"smiles": "NC(=O)Nc1ccc([As](=O)(O)O)cc1", "Potency": "inactive"}
{"smiles": "CN(C)C1(CNC(=O)c2ccc(S(C)(=O)=O)cc2)CCCCC1", "activity change, negative = inhibition": "inactive: -3.88%"}
{"smiles": "O=C(/C=C/c1ccccc1)OC1CN2CCC1CC2", "note": "(configuration not stated)", "activity change, negative = inhibition": "inactive: 44.1%"}
{"smiles": "Cc1ccc(C(=O)OC2CN3CCC2CC3)cc1", "note": "(configuration not stated)", "activity change, negative = inhibition": "inactive: -4.84%"}
{"smiles": "CC1CCC(C(C)C)C(OP(=O)(Nc2ccccn2)c2ccccc2)C1", "note": "(configuration not stated)", "activity change, negative = inhibition": "inactive: 17.8%"}
{"smiles": "Cc1nn(-c2ccccc2)c2c1P(=O)(N1CCOCC1)N(C)C(c1ccccc1)=N2", "note": "(configuration not stated)", "activity change, negative = inhibition": "inactive: 21.3%"}
{"smiles": "Nc1cccc([As](=O)(O)c2ccccc2)c1", "activity change, negative = inhibition": "inactive: 12.9%"}
{"smiles": "O=P1(Nc2ccc(Br)cn2)COc2ccccc2OC1", "activity change, negative = inhibition": "inactive: -3.02%"}
{"smiles": "O=[As](O)(c1cccs1)c1cccs1", "activity change, negative = inhibition": "inactive: -7.27%"}
{"smiles": "Cc1ccc(OCC(=O)OC2CN3CCC2CC3)cc1", "note": "(configuration not stated)", "activity change, negative = inhibition": "inactive: 33.8%"}
{"smiles": "O=P1(Nc2ncccn2)COc2ccccc2OC1", "activity change, negative = inhibition": "inactive: 42%"}
{"smiles": "CC(C)(C)C(=O)NC(Sc1ncccn1)C(Cl)(Cl)Cl", "note": "(configuration not stated)", "activity change, negative = inhibition": "inactive: -16.7%"}
{"smiles": "Clc1n[nH]nc1-c1nn[nH][15n]1", "activity change, negative = inhibition": "inactive: -19.3%"}
{"smiles": "CCOP(=O)(NC(=NC(C)c1ccccc1)NC(C)c1ccccc1)OCC", "note": "(configuration not stated)", "activity change, negative = inhibition": "inactive: 17.1%"}
{"smiles": "CCC1=CC2Cc3nc4ccc(Cl)cc4c(N)c3C(C1)C2", "note": "(configuration not stated)", "activity change, negative = inhibition": "inactive: -33.6%"}
{"smiles": "O=P1(Nc2ccccn2)COc2ccccc2OC1", "activity change, negative = inhibition": "inactive: -25.4%"}
{"smiles": "CCOP(=O)(Nc1ccc(C)cn1)OCC", "activity change, negative = inhibition": "inactive: 5.31%"}
{"smiles": "CN(C(=O)Cc1ccc(Cl)c(Cl)c1)[C@@H]1CCCC[C@H]1N1CCCC1", "activity change, negative = inhibition": "inactive: -15.1%"}
{"smiles": "CC(C)/C=N\\N=C(\\N)N[N+](=O)[O-]", "activity change, negative = inhibition": "inactive: 1.66%"}
{"smiles": "O=[As](O)(c1ccccc1Br)c1ccccc1Br", "activity change, negative = inhibition": "inactive: -1.47%"}
{"smiles": "c1nnnn1CCn1cnnn1", "activity change, negative = inhibition": "inactive: 20.1%"}
{"smiles": "O=P(Nc1nccs1)(c1ccccc1)c1ccccc1", "activity change, negative = inhibition": "inactive: 22.4%"}
{"smiles": "CC(C)C(=O)NC(Sc1ccccc1)C(Cl)(Cl)Cl", "note": "(configuration not stated)", "activity change, negative = inhibition": "inactive: 1.81%"}
{"smiles": "CN(C(=O)Cc1ccccc1)[C@H]1CC[C@@]2(CCCO2)C[C@@H]1N1CCCC1", "activity change, negative = inhibition": "inactive: -3.92%"}
{"smiles": "C[C@H]1OP(=O)(Oc2ccccc2)[C@H](O)[C@H](O)[C@H]1N=[N+]=[N-]", "note": "(some centres not stated)", "activity change, negative = inhibition": "inactive: -5.57%"}
{"smiles": "O=P(Nc1nc2ccccc2s1)(c1ccccc1)c1ccccc1", "activity change, negative = inhibition": "inactive: -31.2%"}
{"smiles": "CN(C)C1(CNC(=O)c2ccc(Cl)c(S(N)(=O)=O)c2)CCCCC1", "activity change, negative = inhibition": "inactive: 2.19%"}
{"smiles": "O=P(Nc1ccccn1)(c1ccc(Br)cc1)c1ccc(Br)cc1", "activity change, negative = inhibition": "inactive: 21.6%"}
{"smiles": "O=C(OC1CN2CCC1CC2)c1cccc(Cl)c1", "note": "(configuration not stated)", "activity change, negative = inhibition": "inactive: -15.3%"}
{"smiles": "Nc1ccc([As](=O)(O)c2ccc([N+](=O)[O-])cc2)cc1", "activity change, negative = inhibition": "inactive: 11.1%"}
{"smiles": "C(Cc1nn[nH]n1)Cc1nn[nH]n1", "activity change, negative = inhibition": "inactive: -6.79%"}
{"smiles": "O=[As](O)(c1ccccc1)c1ccc(O)cc1", "activity change, negative = inhibition": "inactive: -4.09%"}
{"smiles": "O=[N+]([O-])c1ncn(CCn2cnc([N+](=O)[O-])n2)n1", "activity change, negative = inhibition": "inactive: -25.2%"}
{"smiles": "O=[N+]([O-])c1ccc(O)c(/C=N/Nc2ccc([N+](=O)[O-])cc2[N+](=O)[O-])c1", "Potency": "active: 5.62 µM"}
